Our source for the IC50 values is ChEMBL document CHEMBL1121436, “2,4-Diamino-5-benzylpyrimidines as antibacterial agents. 4. 6-Substituted trimethoprim derivatives from phenolic Mannich intermediates. Application to the synthesis of trimethoprim and 3,5-dialkylbenzyl analogues” (J Med Chem, 1980).

This assay deals with T1, Dihydrofolate reductase (Rattus norvegicus, UniProt Q920D2).
T1 sequence (Q920D2 whole entry): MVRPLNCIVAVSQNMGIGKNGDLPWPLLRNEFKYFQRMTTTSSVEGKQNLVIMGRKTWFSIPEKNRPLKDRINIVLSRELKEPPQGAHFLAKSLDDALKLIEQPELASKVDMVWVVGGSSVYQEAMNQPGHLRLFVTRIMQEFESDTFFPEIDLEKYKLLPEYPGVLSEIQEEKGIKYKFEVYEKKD
Put plainly: Inhibition against dihydrofolate reductase enzyme of rat liver. The note with it: read-out: I50.
For `COc1cc(Cc2c(N)nc(N)nc2SC)cc(OC)c1OC`, the IC50 was more than 450 µM. On to `CCc1cc(Cc2c(N)nc(N)nc2SC)cc(CC)c1OC`, for which the IC50 was more than 40 µM. Under `COc1cc(Cc2c(N)nc(N)nc2Oc2ccccc2)cc(OC)c1OC` stands more than 45 µM.
